From PubChem BioAssay AID602261 (Sanford-Burnham Center for Chemical Genomics, 2012)
Only a part is listed here, and it is no random draw. Activity calls are given as the source filed them.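 How the source made its calls: active means compounds whose normalised, plate-corrected inhibition of enzyme fluorescence in the single-dose primary screen is 50% or more; inactive means the rest.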

Amino acid sequences for entries named in this document (tags omitted).
UniProt P49327, whole entry: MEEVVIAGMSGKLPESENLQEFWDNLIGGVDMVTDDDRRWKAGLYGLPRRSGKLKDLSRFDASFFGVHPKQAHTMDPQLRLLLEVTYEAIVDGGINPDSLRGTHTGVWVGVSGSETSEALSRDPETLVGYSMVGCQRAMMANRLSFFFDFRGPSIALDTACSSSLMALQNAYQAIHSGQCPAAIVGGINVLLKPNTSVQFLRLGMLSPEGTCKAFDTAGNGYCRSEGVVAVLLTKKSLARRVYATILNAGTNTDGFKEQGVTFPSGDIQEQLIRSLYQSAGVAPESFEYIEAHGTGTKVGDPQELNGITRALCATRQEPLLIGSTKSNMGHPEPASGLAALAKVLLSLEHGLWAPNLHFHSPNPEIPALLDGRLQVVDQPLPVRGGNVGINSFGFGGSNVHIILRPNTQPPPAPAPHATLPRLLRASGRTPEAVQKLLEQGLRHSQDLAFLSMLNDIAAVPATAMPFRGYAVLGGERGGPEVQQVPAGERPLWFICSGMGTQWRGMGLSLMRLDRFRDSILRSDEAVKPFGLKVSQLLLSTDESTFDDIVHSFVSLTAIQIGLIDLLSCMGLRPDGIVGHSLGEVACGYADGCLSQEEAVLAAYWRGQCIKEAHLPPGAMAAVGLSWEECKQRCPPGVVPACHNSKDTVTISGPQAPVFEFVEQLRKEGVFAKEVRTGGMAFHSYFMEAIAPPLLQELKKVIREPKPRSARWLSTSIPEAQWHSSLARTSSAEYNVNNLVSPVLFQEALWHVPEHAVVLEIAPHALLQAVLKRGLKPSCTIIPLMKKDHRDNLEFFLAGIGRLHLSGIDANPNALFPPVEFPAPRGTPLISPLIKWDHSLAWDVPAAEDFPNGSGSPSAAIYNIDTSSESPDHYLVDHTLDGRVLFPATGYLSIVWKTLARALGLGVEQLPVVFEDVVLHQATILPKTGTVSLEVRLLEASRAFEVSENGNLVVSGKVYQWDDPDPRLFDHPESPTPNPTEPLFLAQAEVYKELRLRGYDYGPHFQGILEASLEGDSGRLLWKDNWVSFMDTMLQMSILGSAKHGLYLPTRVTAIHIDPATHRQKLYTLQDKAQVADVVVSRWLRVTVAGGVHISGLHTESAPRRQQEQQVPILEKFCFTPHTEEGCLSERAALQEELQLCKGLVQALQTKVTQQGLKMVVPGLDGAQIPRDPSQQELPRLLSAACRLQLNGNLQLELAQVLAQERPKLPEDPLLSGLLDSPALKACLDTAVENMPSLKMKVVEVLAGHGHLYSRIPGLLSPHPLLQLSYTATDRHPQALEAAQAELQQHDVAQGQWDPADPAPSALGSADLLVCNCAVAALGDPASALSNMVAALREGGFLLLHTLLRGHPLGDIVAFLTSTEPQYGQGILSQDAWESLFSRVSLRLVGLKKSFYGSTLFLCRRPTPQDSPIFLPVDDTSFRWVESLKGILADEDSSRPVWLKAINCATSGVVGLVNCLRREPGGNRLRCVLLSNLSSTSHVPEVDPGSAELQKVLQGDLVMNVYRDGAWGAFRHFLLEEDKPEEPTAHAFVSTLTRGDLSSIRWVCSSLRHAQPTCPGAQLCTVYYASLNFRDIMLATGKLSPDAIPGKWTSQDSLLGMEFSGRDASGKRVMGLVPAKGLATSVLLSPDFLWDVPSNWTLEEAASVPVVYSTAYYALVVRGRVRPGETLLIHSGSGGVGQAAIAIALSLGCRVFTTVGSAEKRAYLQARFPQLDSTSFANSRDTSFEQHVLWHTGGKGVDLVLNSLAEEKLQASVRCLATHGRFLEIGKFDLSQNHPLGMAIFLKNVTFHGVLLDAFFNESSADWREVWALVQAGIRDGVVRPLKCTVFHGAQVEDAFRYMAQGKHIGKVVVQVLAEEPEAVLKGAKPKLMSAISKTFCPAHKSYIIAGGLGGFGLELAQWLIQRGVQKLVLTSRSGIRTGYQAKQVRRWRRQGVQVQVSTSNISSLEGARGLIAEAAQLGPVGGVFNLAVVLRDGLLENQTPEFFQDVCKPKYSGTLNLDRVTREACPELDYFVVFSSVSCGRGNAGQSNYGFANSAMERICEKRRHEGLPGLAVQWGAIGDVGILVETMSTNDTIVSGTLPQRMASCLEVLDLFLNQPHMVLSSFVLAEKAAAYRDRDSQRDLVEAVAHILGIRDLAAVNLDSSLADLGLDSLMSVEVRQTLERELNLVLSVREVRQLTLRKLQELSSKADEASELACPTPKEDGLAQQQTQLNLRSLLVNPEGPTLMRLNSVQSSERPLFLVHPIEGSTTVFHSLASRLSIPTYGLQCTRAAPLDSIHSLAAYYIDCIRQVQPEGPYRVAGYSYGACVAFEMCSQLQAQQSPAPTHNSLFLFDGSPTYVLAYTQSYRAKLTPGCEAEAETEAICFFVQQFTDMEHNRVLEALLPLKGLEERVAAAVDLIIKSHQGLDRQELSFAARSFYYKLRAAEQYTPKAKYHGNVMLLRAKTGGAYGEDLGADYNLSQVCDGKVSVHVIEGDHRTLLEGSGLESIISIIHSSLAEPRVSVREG

What follows are molecules tested against Fatty acid synthase (Homo sapiens) (UniProt P49327) (assay: FAS thioesterase domain inhibitors, primary screen, biochemical, fluorescence intensity, uHTS (AID 602261;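 further: 0% = DMSO with enzyme and 100% = substrate without enzyme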)). Details: recombinant FAS-TE, OMFH fluorogenic substrate, fluorescence endpoint; at 15 µM; active compounds read high.

| SMILES | inhibition |
| --- | --- |
| CCC(=O)N(c1ccccc1)C1(COC)CCN(CCc2cccs2)CC1 | inactive: -2.8% |
| CCC(=O)N(c1ccccc1)C1(COC)CCN(CCn2nnn(CC)c2=O)CC1 | inactive: -2.5% |
